# Source: article PMC8480965 (The Journal of General Physiology, 2021)
# Where “and” joins values, the source holds several entries; their conditions need not be identical. Equal values may be shown once.
# How the values were obtained:
# Kv2.1 (Kv2.1-CHO cells) [1] = biological target: T1, Kv2.1 (Kv2.1-CHO cells) (Rattus norvegicus, UniProt P15387); assay: Voltage clamp fluorometry of GxTX-594 on Kv2.1-CHO cells; assay type: cell-based
# T1 sequence (P15387 1-857): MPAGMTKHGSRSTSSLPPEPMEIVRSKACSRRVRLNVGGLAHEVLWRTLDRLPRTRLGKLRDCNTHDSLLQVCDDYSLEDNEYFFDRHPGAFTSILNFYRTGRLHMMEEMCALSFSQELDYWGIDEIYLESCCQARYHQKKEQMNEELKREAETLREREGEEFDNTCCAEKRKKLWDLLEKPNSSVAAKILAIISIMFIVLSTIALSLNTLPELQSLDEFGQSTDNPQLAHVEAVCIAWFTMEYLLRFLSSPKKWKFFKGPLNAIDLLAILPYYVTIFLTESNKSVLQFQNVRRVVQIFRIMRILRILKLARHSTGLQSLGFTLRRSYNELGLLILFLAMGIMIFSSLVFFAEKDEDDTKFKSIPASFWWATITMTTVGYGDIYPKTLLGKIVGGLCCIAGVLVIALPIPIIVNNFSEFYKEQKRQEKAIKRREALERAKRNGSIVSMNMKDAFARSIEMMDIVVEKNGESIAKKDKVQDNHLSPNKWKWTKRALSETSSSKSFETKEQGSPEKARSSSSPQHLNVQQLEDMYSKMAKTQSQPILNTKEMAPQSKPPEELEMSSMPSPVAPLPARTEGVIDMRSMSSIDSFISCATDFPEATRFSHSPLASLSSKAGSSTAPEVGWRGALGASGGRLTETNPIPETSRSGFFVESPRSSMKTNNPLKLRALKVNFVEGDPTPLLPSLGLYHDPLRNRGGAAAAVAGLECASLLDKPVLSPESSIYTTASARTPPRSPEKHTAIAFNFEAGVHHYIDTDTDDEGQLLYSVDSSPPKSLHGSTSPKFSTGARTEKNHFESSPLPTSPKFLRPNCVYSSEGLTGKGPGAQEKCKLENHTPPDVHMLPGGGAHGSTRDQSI
# [2] = system: CHO cells in the absence of Kv2 proteins; assay: GxTX-594 labeling of CHO cells lacking Kv2 proteins; assay type: binding, Chinese hamster; conditions: 100 nM then diluted to 9 nM
# Outline: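 Nontransfected CHO cells and Kv2.1-GFP or Kv2.2-GFP transfected cells were incubated with 100 nM test compound plus 5 μg/ml WGA-405. Both were then diluted to 9 nM and 0.45 μg/ml before Airy disk imaging above the glass-adhered surface. WGA-405 fluorescence served as a mask for manually drawn ROIs. Per-cell 594-nm versus 488-nm intensities were compared between cells with and without obvious GFP.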
# Kv2.2-GFP = assay: GxTX-594 labeling and colocalization imaging, Kv2.2-GFP; assay type: binding, rat; conditions: CHO cells, 100 nM, 5 min, Pearson correlation
# Kv2.1 (Kv2.1-CHO cells) [3] = biological target: T1, Kv2.1 (Kv2.1-CHO cells); assay type: cell-based
# Kv2 voltage sensors = assay: EVAP model calculations; conditions: Table 1
# Kv2.1 (Kv2.1-CHO cells) [4] = biological target: T1, Kv2.1 (Kv2.1-CHO cells); assay: Voltage clamp fluorometry with repetitive 2-ms voltage steps, Kv2.1-CHO cells; assay type: cell-based
# [5] = 9 nM GxTX-594, step from −80 mV, monoexponential fit, exemplar cell, ± SD of fit
# [6] = 9 nM, ROI hand-drawn to contain apparent cell surface, representative trace
# [7] = 9 nM, glass-adhered surface, circle 1.8 μm diameter, representative trace
# [8] = 9 nM, glass-adhered surface, circle 4.9 μm diameter, representative trace
# [9] = 9 nM, glass-adhered surface, circle 9.1 μm diameter, representative trace
# [10] = step −80 mV to 0 mV, representative trace
smiles,measurement,setting,value
"CCCC[C@H](NC(=O)[C@@H]1CCCN1C(=O)[C@H](Cc1ccccc1)NC(=O)[C@H](CC(N)=O)NC(=O)[C@@H]1CSSC[C@@H]2NC(=O)[C@H](C)NC(=O)[C@@H]3CCCN3C(=O)[C@H](CCCCN)NC(=O)CNC(=O)[C@H](CSC3CC(=O)N(CCCCCNC(=O)c4ccc(C5=c6cc7c(cc6Oc6cc8c(cc65)C(CS(=O)(=O)O)=CC(C)(C)N8C)=[N+](C)C(C)(C)C=C7CS(=O)(=O)[O-])c(C(=O)O)c4)C3=O)NC(=O)CNC(=O)[C@@H]3CSSC[C@H](NC(=O)[C@H](C(C)C)NC(=O)[C@H](Cc4ccc(O)cc4)NC(=O)[C@H](CCCCN)NC(=O)[C@@H]4CCCN4C(=O)[C@H](CSSC[C@H](NC(=O)[C@H](CCC(=O)O)NC(=O)CNC(=O)[C@@H](N)CCC(=O)O)C(=O)NCC(=O)NCC(=O)N[C@@H](Cc4ccccc4)C(=O)N[C@@H](Cc4c[nH]c5ccccc45)C(=O)N[C@@H](Cc4c[nH]c5ccccc45)C(=O)N[C@@H](CCCCN)C(=O)N3)NC2=O)C(=O)N[C@@H](CO)C(=O)N2CCC[C@H]2C(=O)N[C@@H](CCCCN)C(=O)N[C@@H](Cc2c[nH]c3ccccc23)C(=O)NCC(=O)N[C@@H](CC(C)C)C(=O)N1)C(=O)N1CCC[C@H]1C(=O)O (some centres unmarked) [GxTX-594, Ser13Cys (Alexa Fluor 594) GxTX-1E]",range in kΔF values at +80 mV,"Kv2.1 (Kv2.1-CHO cells) [1]; 9 nM GxTX-594, cell-to-cell",ninefold range
same,range in kΔF values at −80 mV,"Kv2.1 (Kv2.1-CHO cells) [1]; 9 nM GxTX-594, cell-to-cell",twofold range
same,z of fluorescence–voltage (FV) relation,"Kv2.1 (Kv2.1-CHO cells) [1]; 9 nM GxTX-594, end of 50-s steps, first-order Boltzmann fit",1.38 ± 0.13 e0 and 1.4 e0 and 1.4 ± 0.1 e0
same,z of kΔF–voltage relation,"Kv2.1 (Kv2.1-CHO cells) [1]; 9 nM GxTX-594, first-order Boltzmann fit, poorly constrained",1.43 ± 0.35 e0 and 1.4 ± 0.4 e0
same,"kΔF at periphery vs center of cell, −80 mV","Kv2.1 (Kv2.1-CHO cells) [1]; 9 nM GxTX-594, labeling",~10 fold
same,kΔF at 0 mV,Kv2.1 (Kv2.1-CHO cells) [1]; [5],0.1279 ± 0.0023 s⁻¹
same,kΔF at 40 mV,Kv2.1 (Kv2.1-CHO cells) [1]; [5],0.2492 ± 0.0062 s⁻¹
same,kΔF at 80 mV,Kv2.1 (Kv2.1-CHO cells) [1]; [5],0.42 ± 0.011 s⁻¹
same,kΔF at −40 mV,Kv2.1 (Kv2.1-CHO cells) [1]; [5],0.0215 ± 0.0022 s⁻¹
same,"kΔF at periphery vs center of cell, 40 mV","Kv2.1 (Kv2.1-CHO cells) [1]; 9 nM GxTX-594, unlabeling",approximately threefold faster
same,average kΔF at −80 mV,"Kv2.1 (Kv2.1-CHO cells) [1]; 9 nM GxTX-594, voltage-clamped Kv2.1-CHO cells",0.0014 s⁻¹
same,"kΔF at 40 mV, ROI 4",Kv2.1 (Kv2.1-CHO cells) [1]; [6],0.0969 ± 0.0033 s⁻¹
same,"kΔF at −80 mV, ROI 4",Kv2.1 (Kv2.1-CHO cells) [1]; [6],0.00546 ± 0.00013 s⁻¹
same,"kΔF at 40 mV, ROI 1",Kv2.1 (Kv2.1-CHO cells) [1]; [7],0.0429 ± 0.0026 s⁻¹
same,"kΔF at −80 mV, ROI 1",Kv2.1 (Kv2.1-CHO cells) [1]; [7],0.000427 ± 1.1e-05 s⁻¹
same,"kΔF at 40 mV, ROI 2",Kv2.1 (Kv2.1-CHO cells) [1]; [8],0.0439 ± 0.0016 s⁻¹
same,"kΔF at −80 mV, ROI 2",Kv2.1 (Kv2.1-CHO cells) [1]; [8],0.0007999 ± 5.3e-06 s⁻¹
same,"kΔF at 40 mV, ROI 3",Kv2.1 (Kv2.1-CHO cells) [1]; [9],0.0565 ± 0.0015 s⁻¹
same,"kΔF at −80 mV, ROI 3",Kv2.1 (Kv2.1-CHO cells) [1]; [9],0.0027556 ± 7.4e-06 s⁻¹
same,kΔF at 27°C,Kv2.1 (Kv2.1-CHO cells) [1]; [10],0.0247 ± 0.0039 s⁻¹
same,kΔF at 37°C,Kv2.1 (Kv2.1-CHO cells) [1]; [10],0.0754 ± 0.0054 s⁻¹
same,labeling of CHO cells in the absence of Kv2 proteins,[2],failed to find any GxTX-594 labeling
same,subcellular colocalization with Kv2.2-GFP,Kv2.2-GFP,high degree of subcellular colocalization
same,"V1/2, mean midpoint of each of four independent voltage sensors","Kv2.1 (Kv2.1-CHO cells) [3]; 100 nM GxTX-594, 5 min, fourth-power Boltzmann fit of tail GV, mean ± SD, n = 11",+27 ± 10 mV
same,"z, elementary charges associated with Boltzmann fit","Kv2.1 (Kv2.1-CHO cells) [3]; 100 nM GxTX-594, fourth-power Boltzmann fit, mean ± SD, n = 11",1.0 ± 0.4 e0
same,conduction by Kv2.1–GxTX-594 complex,Kv2.1 (Kv2.1-CHO cells) [3]; physiological voltage range,does not open to conduct K^+ ions in the physiological voltage range
same,range of V1/2,"Kv2.1 (Kv2.1-CHO cells) [3]; with GxTX-594, cell-to-cell variance",36 mV
same,"koff,resting",Kv2 voltage sensors; from saturating kΔF at negative voltages and Kd,0.0081 s⁻¹
same,"koff,activated",Kv2 voltage sensors; saturating amplitude of Boltzmann fit to kΔF at positive voltages,0.39 s⁻¹
same,kΔF at 200 Hz,"Kv2.1 (Kv2.1-CHO cells) [4]; 9 nM GxTX-594, 2-ms steps −80 to +40 mV, representative trace",0.2327 ± 0.0099 × 10^−1 s^−1
same,unlabeling and kΔF vs stimulus frequency,"Kv2.1 (Kv2.1-CHO cells) [4]; 9 nM, 0.02–200 Hz",increased with stimulus frequency
same,fluorescence decrease compared with EVAP model at and >50 Hz,"Kv2.1 (Kv2.1-CHO cells) [4]; 9 nM, 2-ms steps −80 to +40 mV",fluorescence decreased by more than the EVAP model predicted
